Our source for the IC50 values is patent publication US20070026433A1, “Epitope testing using soluble HLA” (priority 2001, published 2007).

This test concerns the target sHLA-A*0201 (Homo sapiens, UniProt P04439, D140Y/D185E/D98H/E176V/E277Q/G131W/G231S/I119V/I121R/I166T/I218V/L300P/L318F/N151K/N90K/P208A/P217A/Q86G/Q94H/R138H/R169H/T345S). Kind of test: biochemical. The class given is binding. Further details: contained the leader peptide, as well as the α1, α2, and α3 coding domains of the HLA heavy chain; made in house; β2m from Fitzgerald Industries International. To be noted: 50 μg/mL (1059 nM) sHLA-A*0201, β2m 2117 nM, 1 nM FITC-labeled reference peptide P5; read-out: StD comp assay (FP) IC50.

Molecules are shown by their SMILES.

The IC50 is the concentration that gives 50% inhibition. Regarding `CSCC[C@H](NC(=O)[C@@H](N)Cc1ccc(O)cc1)C(=O)N[C@@H](CC(=O)O)C(=O)N[C@@H](CC(=O)O)C(=O)N[C@H](C(=O)N[C@H](C(=O)N[C@@H](CC(C)C)C(=O)NCC(=O)N[C@@H](C)C(=O)O)C(C)C)C(C)C`, the IC50 came out at 823 nM.
